# What was measured:
# [1] = tested on: pERK in H358 cells; experiment: pERK inhibition in H358 cells; conditions: read-out: Cellular pERK inhibition, 4 hours treatment
# Method in brief: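 Human lung cancer H358 cells in RPMI/10% FBS were exposed to compound or DMSO for 4 h. Fixed and permeabilized cells were stained overnight at 4 C with anti-phospho-ERK1/2 (Thr202/Tyr204). Near-infrared imaging read the pERK signal at 800 nm, with DRAQ5 at 700 nm.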
# [2] = target: cyclophilin A (CYPA) (Homo sapiens, UniProt P62937); experiment: CYPA-compound binary complex formation by SPR; conditions: read-out: CYPA Binding Affinity
# Method in brief: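 Steady-state fit of SPR responses gave binding affinity. Analyte series: 50 μM downward, 2-fold, 10 points, running buffer HBS-P+ (0.05% Tween20, pH7.4, 2% DMSO), 60 s on/60 s off. Surface: biotinylated CypA-Avi captured at 4 μg/ml against a reference cell, regenerated with NaOH/guanidine.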
# [3] = target: BRAF-GTP-KRAS-G12C complex (Homo sapiens, UniProt P01116+P62937, G12C); experiment: KRAS-BRAF complex disruption through competition with CYPA-compound by TR-FRET; conditions: read-out: BRAF-GTP-KRAS-G12C Disruption; biochemical BRAF-KRAS G12C-GTP disruption assay EC50, with CYPA
# Method in brief: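 Compound-driven loss of KRAS–BRAF RBD TR-FRET signal, Eu-anti-His/APC-anti-GST pair (10/50 nM, 1.5 h), following a 3 h room-temperature preincubation of 50 nM His6-KRAS G12C-GTP and 500 nM CypA in 25 mM Hepes pH 7.3 buffer. EC50 by 4-parameter fit. Variants used wild-type KRAS in place of G12C or no CypA.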
SMILES,IC50 [1],Kd [2],EC50 [3]
CC(Cl)C(=O)N1CC(C(=O)N(C)[C@H](C(=O)N[C@H]2Cc3cc(O)cc(c3)-c3ccc4c(C5CCC5)cn(c4c3)CC(C)(C)COC(=O)[C@@H]3CCCN(N3)C2=O)C(C)C)C1 (stereo partly drawn),> 10 µM,> 15 µM,500 to 5000 nM
C=CC(=O)N1CCC(F)(C(=O)N(C)[C@H](C(=O)N[C@H]2Cc3cc(O)cc(c3)-c3ccc4c(C(C)(C)C#N)cn(c4c3)CC(C)(C)COC(=O)[C@@H]3CCCN(N3)C2=O)C(C)C)CC1,< 1 µM,5 to 15 µM,500 to 5000 nM
CC(C)[C@@H](C(=O)N[C@H]1Cc2cc(O)cc(c2)-c2ccc3c(c2)N(C[C@H](C)COC(=O)[C@@H]2CCCN(N2)C1=O)C(=O)C3(C)C)N(C)C(=O)C1CN(C(=O)CCl)C1,1 to 10 µM,< 5 µM,< 500 nM
CC(C)[C@@H](C(=O)N[C@H]1Cc2cc(O)cc(c2)-c2ccc3c(-c4ccccc4[N+](=O)[O-])cn(c3c2)CC(C)(C)COC(=O)[C@@H]2CCCN(N2)C1=O)N(C)C(=O)C1CN(C(=O)[C@@H](C)Cl)C1,> 10 µM,< 5 µM,500 to 5000 nM
CC#CC(=O)N1CCC(C(=O)N(C)[C@H](C(=O)N[C@H]2Cc3cc(O)cc(c3)-c3ccc4c(C(C)(C)C#N)cn(c4c3)CC(C)(C)COC(=O)[C@@H]3CCCN(N3)C2=O)C(C)C)CC1,1 to 10 µM,5 to 15 µM,500 to 5000 nM
C=CC(=O)N1CC(F)(C(=O)N(C)[C@H](C(=O)N[C@H]2Cc3cc(O)cc(c3)-c3ccc4c(c3)n(c(=O)n4C3CC3)C[C@H](C)COC(=O)[C@@H]3CCCN(N3)C2=O)C(C)C)C1,> 10 µM,< 5 µM,500 to 5000 nM
C[C@@H](Cl)C(=O)N1CC(C(=O)N(C)[C@H](C(=O)N[C@H]2Cc3cc(O)cc(c3)-c3ccc4c(C(C)(C)C#N)cn(c4c3)CC(C)(C)COC(=O)[C@@H]3CCCN(N3)C2=O)C2CCOCC2)C1,> 10 µM,> 15 µM,> 5000 nM
CC(C)[C@@H](C(=O)N[C@H]1Cc2cc(O)cc(c2)-c2ccc3c(C(C)(C)C#N)cn(c3c2)C[C@H](C)COC(=O)[C@@H]2CCCN(N2)C1=O)N(C)C(=O)C1CN(C(=O)[C@@H](C)Cl)C1,> 10 µM,< 5 µM,500 to 5000 nM
COc1ccccc1-c1cc2ccc3cc2n1C[C@H](C)COC(=O)[C@@H]1CCCN(N1)C(=O)[C@@H](NC(=O)[C@H](C(C)C)N(C)C(=O)C1CN(C(=O)CCl)C1)Cc1cc(O)cc-3c1,< 1 µM,> 15 µM,< 500 nM
C=CC(=O)N1CC(C(=O)N(C)[C@H](C(=O)N[C@H]2Cc3cc(O)cc(c3)-c3ccc4c(c3)n(c(=O)n4C3CC3)C[C@H](C)COC(=O)[C@@H]3CCCN(N3)C2=O)C(C)C)C1,> 10 µM,5 to 15 µM,500 to 5000 nM
CC1COC(=O)[C@@H]2CCCN(N2)C(=O)[C@@H](NC(=O)[C@H](C(C)C)N(C)C(=O)C2CN(C(=O)CCl)C2)Cc2cc(O)cc(c2)-c2ccc3c(c2)c(cn3C(C)(C)C#N)C1 (stereo partly drawn),< 1 µM,5 to 15 µM,< 500 nM
CC(C)[C@@H](C(=O)N[C@H]1Cc2cc(O)cc(c2)-c2ccc3c(C(C)(C)C#N)cn(c3c2)C[C@H](C)COC(=O)[C@@H]2CCCN(N2)C1=O)N(C)C(=O)C1CN(C(=O)CCl)C1,< 1 µM,5 to 15 µM,< 500 nM
CC(Cl)C(=O)N1CC2(CCN([C@H](C(=O)N[C@H]3Cc4cc(O)cc(c4)-c4ccc5c(C(C)(C)C#N)cn(c5c4)CC(C)(C)COC(=O)[C@@H]4CCCN(N4)C3=O)C(C)C)C2=O)C1 (stereo partly drawn),> 10 µM,> 15 µM,> 5000 nM
"CC(C)[C@@H](C(=O)N[C@H]1Cc2cc(O)cc(c2)-c2ccc3c(c2)N(CC3C(C)(C)C#N)C[C@H](C)COC(=O)[C@@H]2CCCN(N2)C1=O)N(C)C(=O)C1CN(C(=O)CCl)C1 (single isomer, unassigned) [248]",1 to 10 µM,< 5 µM,500 to 5000 nM
C=CC(=O)N1CCCC1C(=O)N(C)C(C(=O)NC1Cc2cc(O)cc(c2)-c2ccc3cc(C)n(c3c2)CC(C)(C)COC(=O)C2CCCN(N2)C1=O)C(C)C (stereo not drawn),> 10 µM,> 15 µM,> 5000 nM
Cc1cn2c3cc(ccc13)-c1cc(O)cc(c1)C[C@H](NC(=O)[C@H](C(C)C)N(C)C(=O)C1CN(C(=O)CCl)C1)C(=O)N1CCC[C@H](N1)C(=O)OCC(C)(C)C2,< 1 µM,> 15 µM,< 500 nM
COc1cccc(-c2cn3c4cc(ccc24)-c2cc(O)cc(c2)C[C@H](NC(=O)[C@H](C(C)C)N(C)C(=O)C2CN(C(=O)CCl)C2)C(=O)N2CCC[C@H](N2)C(=O)OCC(C)(C)C3)c1C#N,< 1 µM,< 5 µM,< 500 nM
CC(C)[C@@H](C(=O)N[C@H]1Cc2cc(O)cc(c2)-c2ccc3c(-c4cc(F)ccc4C#N)cn(c3c2)CC(C)(C)COC(=O)[C@@H]2CCCN(N2)C1=O)N(C)C(=O)C1CN(C(=O)CCl)C1,< 1 µM,5 to 15 µM,< 500 nM
COc1ccc(C#N)c(-c2cn3c4cc(ccc24)-c2cc(O)cc(c2)C[C@H](NC(=O)[C@H](C(C)C)N(C)C(=O)C2CN(C(=O)CCl)C2)C(=O)N2CCC[C@H](N2)C(=O)OCC(C)(C)C3)c1,1 to 10 µM,5 to 15 µM,< 500 nM
CC(C)[C@@H](C(=O)N[C@H]1Cc2cc(O)cc(c2)-c2ccc3c(-c4cccc5c4OC(F)(F)O5)cn(c3c2)CC(C)(C)COC(=O)[C@@H]2CCCN(N2)C1=O)N(C)C(=O)C1CN(C(=O)CCl)C1,> 10 µM,> 15 µM,< 500 nM
C=CC(=O)N1CCC(CC(=O)N(C)[C@H](C(=O)N[C@H]2Cc3cc(O)cc(c3)-c3ccc4c(c3)c(c(C#N)n4CC)CC(C)(C)COC(=O)[C@@H]3CCCN(N3)C2=O)C(C)C)CC1,> 10 µM,> 15 µM,500 to 5000 nM
CC(C)[C@@H](C(=O)N[C@H]1Cc2cc(O)cc(c2)-c2ccc3c(-c4ccccc4)cn(c3c2)C[C@H](C)COC(=O)[C@@H]2CCCN(N2)C1=O)N(C)C(=O)C1CN(C(=O)CCl)C1,1 to 10 µM,> 15 µM,< 500 nM
CC(C)[C@@H](C(=O)N[C@H]1Cc2cc(O)cc(c2)-c2ccc3c(-c4cccc(CC#N)c4)cn(c3c2)CC(C)(C)COC(=O)[C@@H]2CCCN(N2)C1=O)N(C)C(=O)C1CN(C(=O)CCl)C1,1 to 10 µM,5 to 15 µM,< 500 nM
C=CC(=O)N1CCC(C(=O)N(C)[C@H](C(=O)N[C@H]2Cc3cc(O)cc(c3)-c3ccc4c(C(C)(C)C#N)cn(c4c3)CC(C)(C)COC(=O)[C@@H]3CCCN(N3)C2=O)C(C)C)CC1,> 10 µM,> 15 µM,500 to 5000 nM
CC(C)[C@@H](C(=O)N[C@H]1Cc2cc(O)cc(c2)-c2ccc3c(C(C)(C)C#N)cn(c3c2)CC(Cc2ccccc2)COC(=O)[C@@H]2CCCN(N2)C1=O)N(C)C(=O)C1CN(C(=O)CCl)C1 (stereo partly drawn),1 to 10 µM,> 15 µM,< 500 nM
CC(C)[C@@H](C(=O)N[C@H]1Cc2cc(O)cc(c2)-c2ccc3c(C(C)(C)C#N)cn(c3c2)CC(C)(C)COC(=O)[C@@H]2CCCN(N2)C1=O)N(C)C(=O)[C@H]1CCN(C(=O)[C@H](C)Cl)C1,1 to 10 µM,5 to 15 µM,500 to 5000 nM
CC(C)[C@@H](C(=O)NC1Cc2cc(O)cc(c2)-c2ccc3c(C#N)cn(c3c2)CCCCOC(=O)[C@@H]2CCCN(N2)C1=O)N(C)C(=O)C1CN(C(=O)CCl)C1 (stereo partly drawn),> 10 µM,< 5 µM,500 to 5000 nM
"CC(C)[C@@H](C(=O)N[C@H]1Cc2cc(O)cc(c2)-c2ccc3c(c2)N(C[C@H](C)COC(=O)[C@@H]2CCCN(N2)C1=O)CC3(C)/C=C/C#N)N(C)C(=O)C1CN(C(=O)CCl)C1 (single isomer, unassigned) [222]",< 1 µM,< 5 µM,< 500 nM
C[C@@H](Cl)C(=O)N1CC(C(=O)N(C)[C@H](C(=O)N[C@H]2Cc3cc(O)cc(c3)-c3ccc4c(C(C)(C)C#N)cn(c4c3)CC(C)(C)COC(=O)[C@@H]3CCCN(N3)C2=O)C2CCCC2)C1,1 to 10 µM,< 5 µM,500 to 5000 nM

# From patent US20240139185A1, “COMPOUNDS THAT PARTICIPATE IN COOPERATIVE BINDING AND USES THEREOF” (Revolution Medicines, Inc., priority 2018, published 2024)
